# In PubChem BioAssay AID1209 (Sanford-Burnham Center for Chemical Genomics, 2008):
# Sequences of proteins named here, by UniProt entry; tags and fusion partners are left off.
# UniProt P34949, whole entry: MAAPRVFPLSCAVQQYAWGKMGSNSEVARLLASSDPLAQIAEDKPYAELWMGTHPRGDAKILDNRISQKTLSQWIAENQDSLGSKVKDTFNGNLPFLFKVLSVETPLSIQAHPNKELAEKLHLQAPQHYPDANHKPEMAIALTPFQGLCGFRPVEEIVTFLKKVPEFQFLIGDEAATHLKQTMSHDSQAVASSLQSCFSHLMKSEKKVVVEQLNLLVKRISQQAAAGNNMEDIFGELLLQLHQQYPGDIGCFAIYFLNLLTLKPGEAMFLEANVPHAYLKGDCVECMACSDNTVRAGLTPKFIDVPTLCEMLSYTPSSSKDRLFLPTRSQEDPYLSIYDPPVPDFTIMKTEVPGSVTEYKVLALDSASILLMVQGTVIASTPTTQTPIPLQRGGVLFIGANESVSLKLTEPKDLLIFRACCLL
# The list shows a part of the results, in another mix than the full data. Activity calls are given as the source filed them. Rule as the data show it: active = inhibition above about 50%; inactive = the rest.
# Biological target: Mannose-6-phosphate isomerase (Homo sapiens) (UniProt P34949)
# Test: inhibitors of human PMI, primary screen, biochemical, fluorescence intensity, coupled assay (AID 1209);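 also: plate controls were DMSO vehicle for no effect and wells lacking substrate for full effect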
# Conditions: purified PMI enzyme, at 20 µM, stronger effect = higher value
row,Structure (SMILES),inhibition
1,CCOc1ncccc1C(=O)NCC1(N2CCOCC2)CCCCC1,inactive: 6.1%
2,CC(C)(C)OC(=O)N1CCC(Nc2ccccc2)CC1,inactive: -12.3%
3,COc1cc(OC)cc(C(=O)NCC2(N3CCOCC3)CCCCC2)c1,inactive: -7.3%
4,CCC(CO)(C(=O)OC1CN2CCC1CC2)c1ccccc1 (stereo not given),inactive: -1.6%
5,Fc1ccccc1NC1CCN(Cc2ccccc2)CC1,inactive: -16.8%
6,CCN1CCC(Nc2cccc(F)c2)CC1,inactive: 5%
7,CN(C)c1ccc(C(=O)NCC2(N3CCCCC3)CCCCC2)cc1,inactive: -4.1%
8,N#Cc1ccc(C(=O)NCC2(N3CCCCC3)CCCCC2)cc1,inactive: -8.1%
9,c1ccc(CN2CCC(Nc3ccccc3)CC2)cc1,inactive: 15.3%
10,COc1ccc(C(=O)NCC2(N3CCOCC3)CCCCC2)cc1OC,inactive: -6.6%
11,N/C(=N\O)c1c(N)no[n+]1[O-],inactive: -10.7%
12,O=C(OC1CN2CCC1CC2)C1c2ccccc2C=Cc2ccccc21 (stereo not given),inactive: -12.9%
13,CC(C)c1ccc(NC2CCN(C(=O)OC(C)(C)C)CC2)cc1,inactive: 13.1%
14,CN(C)c1cccc(C(=O)NCC2(N3CCCCC3)CCCCC2)c1,inactive: -54.7%
15,COc1ccc(CN(CCCl)CCCl)cc1Cl,inactive: 29%
16,N#CC1(Nc2ccccc2)CCN(CCc2ccccc2)CC1,inactive: 2%
17,O=C(NCC1(N2CCCCC2)CCCCC1)c1cccc([N+](=O)[O-])c1,inactive: -5.7%
18,O=C(NCC1(N2CCOCC2)CCCCC1)c1cc(=O)[nH]c2ccccc12,inactive: 6%
19,COc1ccc(NC2CCN(C(=O)OC(C)(C)C)CC2)cc1,inactive: 1.5%
20,CN1CCN(CCOC(=O)C(O)(c2ccccc2)c2ccccc2)CC1,inactive: 28.5%
21,COc1ccc(NC2CCN(CCc3ccccc3)CC2)c(OC)c1,inactive: 24.1%
22,COc1ccc(C(=O)NCC2(N3CCCCC3)CCCCC2)c(OC)c1OC,inactive: 0.9%
23,O=C(NCC1(N2CCOCC2)CCCCC1)c1cc2ccccc2o1,inactive: 3.7%
24,O=C(OC1CN2CCC1CC2)C1c2ccccc2Oc2ccccc21 (stereo not given),inactive: 5.3%
25,CCOC(=O)N1CCC(Nc2ccc(OC)cc2)CC1,inactive: -1.7%
